From article PMC5429769, “Rational development of Stafib-2: a selective, nanomolar inhibitor of the transcription factor STAT5b” (Scientific Reports, 2017)

Amino acid sequences for entries named in this document (tags omitted).
UniProt P51692, whole entry: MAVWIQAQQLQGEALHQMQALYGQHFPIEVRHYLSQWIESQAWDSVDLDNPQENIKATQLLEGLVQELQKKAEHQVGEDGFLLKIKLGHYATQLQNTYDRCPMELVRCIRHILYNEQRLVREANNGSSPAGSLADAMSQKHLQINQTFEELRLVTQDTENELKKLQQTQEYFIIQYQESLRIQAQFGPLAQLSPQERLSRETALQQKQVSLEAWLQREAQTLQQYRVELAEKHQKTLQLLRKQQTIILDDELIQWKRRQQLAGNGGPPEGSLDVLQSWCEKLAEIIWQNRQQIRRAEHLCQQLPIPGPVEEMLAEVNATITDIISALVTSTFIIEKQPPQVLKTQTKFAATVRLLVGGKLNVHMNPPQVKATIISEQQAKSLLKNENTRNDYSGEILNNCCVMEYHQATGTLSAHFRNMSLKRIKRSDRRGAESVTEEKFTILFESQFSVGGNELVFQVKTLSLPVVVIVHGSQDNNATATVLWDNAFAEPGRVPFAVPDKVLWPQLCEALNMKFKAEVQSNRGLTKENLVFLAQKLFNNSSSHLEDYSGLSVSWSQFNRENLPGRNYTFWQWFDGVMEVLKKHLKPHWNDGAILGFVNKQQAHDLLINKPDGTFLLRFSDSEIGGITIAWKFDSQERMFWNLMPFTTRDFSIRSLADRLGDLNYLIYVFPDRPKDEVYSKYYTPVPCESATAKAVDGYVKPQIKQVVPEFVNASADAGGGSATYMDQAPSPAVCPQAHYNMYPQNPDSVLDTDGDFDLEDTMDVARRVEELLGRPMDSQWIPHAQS
UniProt P42229, whole entry: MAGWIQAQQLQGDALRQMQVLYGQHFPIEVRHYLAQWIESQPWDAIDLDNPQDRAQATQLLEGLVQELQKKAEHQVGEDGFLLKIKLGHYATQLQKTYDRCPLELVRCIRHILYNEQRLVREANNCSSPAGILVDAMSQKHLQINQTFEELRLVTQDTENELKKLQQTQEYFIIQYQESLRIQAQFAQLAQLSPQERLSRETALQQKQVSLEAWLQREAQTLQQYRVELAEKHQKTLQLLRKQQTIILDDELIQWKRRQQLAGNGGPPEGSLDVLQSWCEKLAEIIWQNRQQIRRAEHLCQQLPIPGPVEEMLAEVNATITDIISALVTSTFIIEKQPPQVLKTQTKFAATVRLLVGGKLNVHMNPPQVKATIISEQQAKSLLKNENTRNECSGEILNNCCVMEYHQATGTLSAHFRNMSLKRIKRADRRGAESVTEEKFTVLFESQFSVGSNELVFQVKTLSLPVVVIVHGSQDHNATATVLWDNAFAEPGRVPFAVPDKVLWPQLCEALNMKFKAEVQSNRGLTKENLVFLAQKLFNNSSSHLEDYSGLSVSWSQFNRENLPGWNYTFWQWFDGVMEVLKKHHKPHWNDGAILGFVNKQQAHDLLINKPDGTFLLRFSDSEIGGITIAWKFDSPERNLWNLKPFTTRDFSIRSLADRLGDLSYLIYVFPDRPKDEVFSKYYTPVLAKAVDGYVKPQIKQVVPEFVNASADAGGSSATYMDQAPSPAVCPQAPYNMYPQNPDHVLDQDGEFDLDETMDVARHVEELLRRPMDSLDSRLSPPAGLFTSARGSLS

How the values were obtained:
[1] = biological target: STAT5b SH2 domain (Homo sapiens, UniProt P51692); assay: Fluorescence polarization assay, STAT5b SH2 domain; details: mean ± s.d.
[2] = biological target: STAT5a SH2 domain (Homo sapiens, UniProt P42229); assay: Fluorescence polarization assay, STAT5a SH2 domain; details: mean ± s.d.

O=C(COc1ccc(Oc2ccccc2)cc1)NCc1ccc(OP(=O)(O)O)c(OP(=O)(O)O)c1
IC50 ([1]; read-out: STAT5b IC50, fluorescence polarization, three independent experiments): 0.57 µM | Ki ([1]; read-out: STAT5b Ki, converted from IC50 using the published equation, n = 3): 0.25 µM | IC50 ([2]; read-out: STAT5a IC50, fluorescence polarization, three independent experiments): 11.6 µM | Ki ([2]; read-out: STAT5a Ki, converted from IC50 using the published equation, n = 3): 5.8 µM
